Laboratory results: patent publication US6022307A, “Substituted dibenzothiophenes having antiangiogenic activity” (American Cyanamid Company, priority 1999, dated 2000)
Where a name gives a salt, the structure may show the parent alone.

Test system: BAE cells
Experiment: Inhibition of binding of 125I-VEGF 165 to BAE cells
Format: cell-based, bovine
Details: inhibition of 125I-VEGF 165 binding to BAE cells; for IC50: Bos taurus, read-out: Cell Assay VEGF 165 IC50 BAE

Structure (SMILES) | IC50 [µg/mL] | Cell Assay VEGF 165 IC50 BAE [µg/mL]
COc1ccc(C=CC(=O)Nc2cc3sc4cc(NC(=O)C=Cc5ccc(OC)c(OC)c5Cl)c(C(=O)[O-])cc4c3cc2C(=O)[O-])c(Cl)c1OC.[Na+].[Na+] | 7 | 
O=C(Nc1cc2sc3cc(NC(=O)c4cc5sccc5s4)c(C(=O)[O-])cc3c2cc1C(=O)[O-])c1cc2sccc2s1.[Na+].[Na+] [Example 5, 3,7-Bis[(thieno[3,2-b]thien-2-ylcarbonyl)amino]dibenzothiophene-2,8-dicarboxylic acid, disodium salt] | 2.2 | 
O=C(Nc1cc2sc3cc(NC(=O)c4cc5c(s4)-c4cc(Cl)ccc4SC5)c(C(=O)O)cc3c2cc1C(=O)O)c1cc2c(s1)-c1cc(Cl)ccc1SC2 [Example 6, 3,7-Bis[(8-chloro-4H-thieno[3,2-c][1]benzothiopyran-2-carbonyl)-amino]dibenzothio-phene-2,8-dicarboxylic acid, disodium] | 3.7 | 
O=C(/C=C/c1ccc(-c2ccccc2)cc1)Nc1cc2sc3cc(NC(=O)/C=C/c4ccc(-c5ccccc5)cc4)c(C(=O)O)cc3c2cc1C(=O)O [Example 9, 3,7-Bis-(3-biphenyl-4-ylacryloylamino)dibenzothiophene-2,8-dicarboxylic Acid, disodium salt] | 10 | 
COc1cc(/C=C/C(=O)Nc2cc3sc4cc(NC(=O)/C=C/c5cc(Br)c(O)c(OC)c5)c(C(=O)O)cc4c3cc2C(=O)O)cc(Br)c1O [Example 10, 3,7-Bis-[3-(3-bromo-4-hydroxy-5-methoxy-phenyl)acryloylamino]-dibenzothiophene-2,8-dicarboxylic Acid, disodium] | 10 | 
COc1ccc(/C=C/C(=O)Nc2cc3sc4cc(NC(=O)/C=C/c5ccc(OC)c(OC)c5OC)c(C(=O)O)cc4c3cc2C(=O)O)c(OC)c1OC [Example 11, 3,7-Bis-[3-(2,3,4-trimethoxyphenyl)acryloylamino]dibenzothiophene-2,8-dicarboxylic Acid, disodium salt] | 6.6 | 
COc1ccc(/C=C/C(=O)Nc2cc3sc4cc(NC(=O)/C=C/c5ccc(OC)cc5)c(C(=O)O)cc4c3cc2C(=O)O)cc1 [Example 12, 3,7-Bis{[3-(4-methoxyphenyl)acryloylamino]-dibenzothiophene-2,8-dicarboxylic Acid, disodium salt] | 10 | 
C=C(C(=O)Nc1cc2sc3cc(Cl)c(C(=O)[O-])cc3c2cc1C(=O)[O-])c1ccc(OC)c(OC)c1Cl.[Na+].[Na+] [Example 14, 3-Chloro-7-[2-(2-chloro-3,4-dimethoxyphenyl)acryloylamino]dibenzothiophene-2,8-dicarboxylic acid, disodium salt] |  | 2.6
O=C(Nc1cc2sc3cc(Cl)c(C(=O)[O-])cc3c2cc1C(=O)[O-])c1ccc2cc3ccccc3cc2c1.[Na+].[Na+] [Example 15, 3-[(2-Anthracenylcarbonyl)amino]-7-chlorodibenzothiophene-2,8-dicarboxylic acid, disodium salt] | 4.1 | 
CCOP(=O)(O)c1cc2c(cc1NC(=O)/C=C/c1ccc(OC)c(OC)c1Cl)S(=O)(=O)c1cc(NC(=O)/C=C/c3ccc(OC)c(OC)c3Cl)c(P(=O)(O)OCC)cc1-2 [Example 19, [3,7-Bis-[3-(2-chloro-3,4-dimethoxyphenyl)acryloylamino]-8-(ethoxyhydroxyphosphoryl)-5 .5-dioxo-5H-5λ^6-dibenzothiophen-2-yl]phosphonic acid monoethyl ester, disodium salt] | 0.59 | 
CCOP(=O)(O)c1cc2c(cc1NC(=O)/C=C/c1ccc(OC)cc1)S(=O)(=O)c1cc(NC(=O)/C=C/c3ccc(OC)cc3)c(P(=O)(O)OCC)cc1-2 [Example 20, [3,7-Bis-[4-methoxyphenyl]-acryloylamino]-8-(ethoxyhydroxy-phosphoryl)-5,5-dioxo-5H-5^6-dibenzothiophen-2-yl]-phosphonic acid monoethyl ester, disodium salt] | 2.3 | 
CCOP(=O)(O)c1cc2c(cc1NC(=O)c1ccc3c(c1)C(=O)c1ccccc1C3=O)S(=O)(=O)c1cc(NC(=O)c3ccc4c(c3)C(=O)c3ccccc3C4=O)c(P(=O)(O)OCC)cc1-2 [Example 21, [3,7-Bis-[9,10-dioxo-9,10-dihydroanthracene-2-carbonyl)amino]-8-(ethoxyhydroxy-phosphoryl)-5,5-dioxo-5H-5^6-dibenzothiophen-2-yl]phosphonic acid monoethyl ester, disodium salt] | 0.8 | 
CCOP(=O)(O)c1cc2c(cc1NC(=O)c1ccc3cc4ccccc4cc3c1)S(=O)(=O)c1cc(NC(=O)c3ccc4cc5ccccc5cc4c3)c(P(=O)(O)OCC)cc1-2 [Example 22, [3,7-Bis-[(anthracene-2-carbonyl)amino]-8-(ethoxyhydroxy-phosphoryl)-5,5-dioxo-5H-5^6-dibenzothiophen-2-yl]-phosphonic acid mono-ethyl ester, disodium salt] | 0.068 | 
CCOP(=O)(O)c1cc2c(cc1NC(=O)c1cc3ccccc3s1)S(=O)(=O)c1cc(NC(=O)c3cc4ccccc4s3)c(P(=O)(OCC)OCC)cc1-2 [Example 23b, [3,7-Bis[(benzo[b]thiophene-2-carbonyl)amino-8-(diethoxyphosphoryl)-5,5-dioxo-5H-5λ^6-dibenzothiophen-2-yl]phosphonic acid monoethyl ester, monosodium salt] | 2.8 | 
O=C(C=Cc1ccc(-c2ccccc2)cc1)Nc1cc2c(cc1S(=O)(=O)O)-c1cc(S(=O)(=O)O)c(NC(=O)C=Cc3ccc(-c4ccccc4)cc3)cc1S2(=O)=O [Example 24, 3,7-Bis-[3-(4-phenylphenyl)acryloylamino]-5,5-dioxo-5H-5λ^6-dibenzothiophene-2,8-disulfonic acid, disodium salt] | 0.32 | 
O=C(/C=C/c1ccc([N+](=O)[O-])cc1)Nc1cc2c(cc1S(=O)(=O)O)-c1cc(S(=O)(=O)O)c(NC(=O)/C=C/c3ccc([N+](=O)[O-])cc3)cc1S2(=O)=O [Example 25, 3,7-Bis-[3-(4-nitrophenyl)-acryloylamino]-5,5-dioxo-5H-5^6-dibenzothiophene-2,8-disulfonic acid, disodium salt] | 0.36 | 
O=C(/C=C/c1cccc2ccccc12)Nc1cc2c(cc1S(=O)(=O)O)-c1cc(S(=O)(=O)O)c(NC(=O)/C=C/c3cccc4ccccc34)cc1S2(=O)=O [Example 26, 3,7-Bis-(3-naphthalen-1-yl-acryloylamino)-5,5-dioxo-5H-5^6-dibenzothiophene-2,8-disulfonic acid, disodium salt] | 0.28 | 
O=C(/C=C/c1ccncc1)Nc1cc2c(cc1S(=O)(=O)O)-c1cc(S(=O)(=O)O)c(NC(=O)/C=C/c3ccncc3)cc1S2(=O)=O [Example 28, 5,5-Dioxo-3,7-bis-(3-pyridin-4-ylacryloylamino)-5H-5^6-dibenzothiophene-2,8-disulfonic acid, disodium salt] | 0.95 | 
O=Cc1ccc(/C=C/C(=O)Nc2cc3c(cc2S(=O)(=O)O)-c2cc(S(=O)(=O)O)c(NC(=O)/C=C/c4ccc(C=O)cc4)cc2S3(=O)=O)cc1 [Example 29, 3,7-Bis-[3-(4-formylphenyl)-acryloylamino]-5,5-dioxo-5H-5^6-dibenzothiophene-2,8-disulfonic acid, disodium salt] | 0.3 | 
O=C(/C=C/c1cccc(O)c1)Nc1cc2c(cc1S(=O)(=O)O)-c1cc(S(=O)(=O)O)c(NC(=O)/C=C/c3cccc(O)c3)cc1S2(=O)=O [Example 31, 3,7-Bis-[(E)-3-(3-hydroxy-phenyl)acryloylamino]-5,5-dioxo-5H-5^6-dibenzothiophene-2,8-disulfonic acid, disodium] | 0.37 | 
N#Cc1ccc(/C=C/C(=O)Nc2cc3c(cc2S(=O)(=O)O)-c2cc(S(=O)(=O)O)c(NC(=O)/C=C/c4ccc(C#N)cc4)cc2S3(=O)=O)cc1 [Example 32, 3,7-Bis-[3-(4-cyanophenyl)-acryloylamino]-5,5-dioxo-5H-5^6-dibenzothiophene-2,8-disulfonic acid, disodium salt] | 0.42 | 
O=C(/C=C/c1ccc(Br)cc1)Nc1cc2c(cc1S(=O)(=O)O)-c1cc(S(=O)(=O)O)c(NC(=O)/C=C/c3ccc(Br)cc3)cc1S2(=O)=O [Example 33, 3,7-Bis-[3-(4-bromophenyl)-acryloylamino]-5,5-dioxo-5H-5^6-dibenzothiophene-2,8-disulfonic acid, disodium salt] | 0.36 | 
COc1ccccc1/C=C/C(=O)Nc1cc2c(cc1S(=O)(=O)O)-c1cc(S(=O)(=O)O)c(NC(=O)/C=C/c3ccccc3OC)cc1S2(=O)=O [Example 34, 3,7-Bis-[3-(2-methoxyphenyl)-acryloylamino]-5,5-dioxo-5H-5^6-dibenzothiophene-2,8-disulfonic acid, disodium salt] | 0.37 | 
CC(C)c1ccc(/C=C/C(=O)Nc2cc3c(cc2S(=O)(=O)O)-c2cc(S(=O)(=O)O)c(NC(=O)/C=C/c4ccc(C(C)C)cc4)cc2S3(=O)=O)cc1 [Example 36, 3,7-Bis-[3-(4-isopropylphenyl)-acryloylamino]-5,5-dioxo-5H-5^ -dibenzothiophene-2,8-disulfonic acid, disodium] | 1.9 | 
COc1ccccc1C=CC(=O)Nc1cc2c(cc1S(=O)(=O)[O-])-c1cc(S(=O)(=O)[O-])c(NC(=O)C=Cc3ccccc3OC)cc1S2(=O)=O.[Na+].[Na+] [Example 37, 3,7-Bis-[3-(2-methoxyphenyl)-acryloylamino]-5,5-dioxo-5H-5^6-dibenzothiophene-2,8-disulfonic acid, disodium salt] |  | 0.32
O=C(/C=C/c1cccc(C(F)(F)F)c1)Nc1cc2c(cc1S(=O)(=O)O)-c1cc(S(=O)(=O)O)c(NC(=O)/C=C/c3cccc(C(F)(F)F)c3)cc1S2(=O)=O [Example 38, 3,7-Bis-[3-(3-trifluoromethyl-phenyl)acryloyl-amino]-5,5-dioxo-5H-5^6-dibenzothiophene-2,8-disulfonic acid, disodium salt] | 2.6 | 
O=C(Nc1cc2c(cc1S(=O)(=O)O)-c1cc(S(=O)(=O)O)c(NC(=O)c3cc4ccccc4s3)cc1S2(=O)=O)c1cc2ccccc2s1 [Example 40, 3,7-Bis-[(benzo[b]thiophene-2-carbonyl)amino]-5,5-dioxo-5H-5^ -dibenzothiophene-2,8-disulfonic acid, disodium] | 2.7 | 
